One compound from ChEMBL document CHEMBL4837200, “Discovery of Orally Bioavailable Purine-Based Inhibitors of the Low-Molecular-Weight Protein Tyrosine Phosphatase” (J Med Chem, 2021) can be followed below.

The target of this assay is T1, Low molecular weight phosphotyrosine protein phosphatase (Homo sapiens) (UniProt P24666).
T1 sequence (whole entry): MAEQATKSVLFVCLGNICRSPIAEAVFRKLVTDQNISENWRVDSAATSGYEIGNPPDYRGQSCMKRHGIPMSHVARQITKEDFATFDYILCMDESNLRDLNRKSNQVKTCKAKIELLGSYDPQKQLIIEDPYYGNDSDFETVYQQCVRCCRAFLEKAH

In turn, `Cc1ccccc1-c1nc2c(N)ncn(Cc3c(Cl)cccc3Cl)c-2n1` registered an alphaKi of 0.147.
